Earlier results, collected in patent publication US20170268027A1, “METHOD FOR SYNTHESIS OF FATTY ACIDS” (priority 2014, published 2017).

System: Escherichia coli
Conditions: addition in the culture medium, genetically modified strains; cited from earlier work

In the case of C/C=C/C/C=C/CCC(=O)[C@H]1O[C@H]1C(N)=O [cerulenin], the “effect on yield of short-chain fatty acids” value is listed as “increase the yield of synthesis of specific short-chain fatty acids”.
